What all share (set-up): scale not given: the % may be the effect or the level left
The target in test [1] is T1, Acetylcholinesterase (Rattus norvegicus) (UniProt P37136).
T1 sequence (whole entry): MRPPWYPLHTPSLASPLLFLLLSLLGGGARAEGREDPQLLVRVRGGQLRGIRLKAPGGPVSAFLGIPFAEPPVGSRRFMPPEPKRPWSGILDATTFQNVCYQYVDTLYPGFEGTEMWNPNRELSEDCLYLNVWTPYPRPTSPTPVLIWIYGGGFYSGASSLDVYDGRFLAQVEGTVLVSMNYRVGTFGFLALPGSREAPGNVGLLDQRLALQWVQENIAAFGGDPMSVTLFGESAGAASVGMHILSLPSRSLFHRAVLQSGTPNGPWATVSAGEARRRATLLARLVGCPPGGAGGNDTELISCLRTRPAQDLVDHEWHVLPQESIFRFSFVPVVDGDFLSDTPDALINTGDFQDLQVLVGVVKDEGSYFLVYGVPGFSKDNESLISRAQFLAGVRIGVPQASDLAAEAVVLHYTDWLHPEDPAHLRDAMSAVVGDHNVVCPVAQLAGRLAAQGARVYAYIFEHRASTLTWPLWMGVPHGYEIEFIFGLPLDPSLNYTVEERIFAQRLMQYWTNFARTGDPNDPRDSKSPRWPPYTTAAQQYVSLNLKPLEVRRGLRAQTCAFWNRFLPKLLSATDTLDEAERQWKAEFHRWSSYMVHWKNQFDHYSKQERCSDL
The test can be described thus: Reactivation of tabun inhibited AChE from rat brain at 1 mM.

The target in test [2] is T1, Acetylcholinesterase (Rattus norvegicus). The test can be described thus: Reactivation of tabun inhibited AChE from rat brain at 0.1 uM.
Test [3] shares this target. The test can be described thus: Reactivation of paraoxon inhibited AChE from rat brain at 1 mM.
Test [4] has the same target. The test can be described thus: Reactivation of paraoxon inhibited AChE from rat brain at 0.1 uM.

On to `N#Cc1cc[n+](CCC[n+]2ccc(/C=N\O)cc2)cc1`, for which the Activity in test [1] was found to be 0%; in test [2] it was 0%; in test [3] it was 32%; in test [4], 25%.
For the molecule `N#Cc1cc[n+](CCC[n+]2cccc(/C=N\O)c2)cc1`, the Activity in test [1] is 0%; in test [2], 0%; in test [3], 4%; in test [4], 0%.
As to `NC(=O)c1cc[n+](COC[n+]2ccccc2/C=N/O)cc1`, the Activity in test [1] came to 2%; in test [2], 4%; in test [3] it was 35%; in test [4], 0%.
The matching figures for `N#Cc1cc[n+](CCC[n+]2ccccc2/C=N/O)cc1`: 0%, 0%, 0% and 3%.

(Values after ChEMBL document CHEMBL1139696, “Synthesis of asymmetrical bispyridinium compounds bearing cyano-moiety and evaluation of their reactivation activity against tabun and paraoxon-inhibited acetylcholinesterase” (2006).)
